According to patent US20070207975A1, “Materials and methods for treating and preventing Her-2/neu overexpressing, FAS-elevated cancer cells” (EVANSTON NORTHWESTERN HEALTHCARE, priority 2006, published 2007):

Columns and labels:
Format in all cases: cell-based, human
[1] = system: SK-Br3 cells; experiment: TUNEL apoptosis assay, SK-Br3; conditions: GLA 10 μg/mL, trastuzumab 10 μg/mL, alone or together, 48 hours
Experimental: FIG. 6. […] After 72 hours, a TUNEL analysis was performed using the DeadEnd® Fluorometric TUNEL System (Promega Inc.) according to the manufacturer's protocol. The immunofluorescence photomicrographs of cells undergoing apoptosis (green staining) and the corresponding DAPI-counterstained photomicrographs are shown. […] Equal amounts of total protein (50 μg per lane) were subjected to Western blot analyses with a specific antibody against the p85 fragment of PARP, and then re-probed with a β-actin antibody. […] Similar results were obtained in three independent experiments. […] A) Cell surface expression of Her-2/neu protein in BT-474 and SK-Br3 cells was determined by flow cytometry using a mouse anti-Her-2/neu antibody directed against the extracellular domain of the p185^Her-2/neu oncoprotein (clone Ab-5; Oncogene Research Products; San Diego, Calif.). […] The mean fluorescence signal associated with cells for labeled p185^Her-2/neu was quantified using the Geo Mean (GM) fluorescence parameter provided with the software. […] Immunoreactive bands were detected by enhanced chemiluminescence reagent (Pierce, Rockford, Ill.). […] Densitometric values of protein bands were quantified using Scion Imaging Software (Scion Corp., Frederick, Md.). […]

[2] = system: SK-Br3 and BT-474 cells; experiment: Soft-agar colony-formation assay; conditions: OA, trastuzumab or co-exposure
[3] = system: p27^Kip1; experiment: Western blot of p27Kip1 expression; conditions: BT-474; 72 hours; OA, trastuzumab or combination
Experimental: FIG. 7. Exogenous supplementation with OA synergistically enhances trastuzumab-induced up-regulation and nuclear accumulation of p27^Kip1. […] Equal amounts of total protein (50 mg per lane) were subjected to Western blot analyses with an anti-p27^Kip1 rabbit polyclonal antibody and then re-probed with a β-actin antibody. […] Similar results were obtained in three independent experiments. […] After 72 hours, p27^Kip1 cellular localization was evaluated by immunofluorescence following a 2 hour incubation with an anti-p27^Kip1 rabbit polyclonal antibody diluted 1:200 in 0.05% Triton X-100/PBS. Cellular localization of P27^Kip1 was detected by indirect immunofluorescence by incubating with TRITC-conjugated anti-rabbit IgG secondary antibody. […]
The lysates were cleared by centrifugation in an Eppendorf tube (15 minutes at 14,000 r.p.m. at 4° C.). Protein content was determined against a standardized control using the Pierce protein assay kit (Rockford, Ill.). […] The membranes were washed in TBS-T, horseradish peroxidase-conjugated secondary antibodies (Jackson Immunoresearch Laboratories) in TBS-T were added for 1 hour, and immunoreactive bands were detected by enhanced chemiluminescence reagent (Pierce). […] Densitometric values of protein bands were quantified using Scion Imaging Software (Scion Corp., Frederick, Md.).

## trastuzumab: humanized monoclonal IgG1, binding with high affinity to the ectodomain of p185^Her-2/neu [reference compound]
[1]
  cells that underwent apoptosis (TUNEL): 11% (95% CI=9% to 13%)
[2]
  anchorage-independent colony formation in soft agar: significantly blocked
[3]
  expression of p27^Kip1: significantly enhanced
